From IntAct's records for PubMed 35512704

B1: RAC-alpha serine/threonine-protein kinase (Homo sapiens), P31749 (parent)
chain: MSDVAIVKEGWLHKRGEYIKTWRPRYFLLKNDGTFIGYKERPQDVDQREAPLNNFSVAQCQLMKTERPRPNTFIIRCLQWTTVIERTFHVETPEEREEWTTAIQTVADGLKKQEEEEMDFRSGSPSDNSGAEEMEVSLAKPKHRVTMNEFEYLKLLGKGTFGKVILVKEKATGRYYAMKILKKEVIVAKDEVAHTLTENRVLQNSRHPFLTALKYSFQTHDRLCFVMEYANGGELFFHLSRERVFSEDRARFYGAEIVSALDYLHSEKNVVYRDLKLENLMLDKDGHIKITDFGLCKEGIKDGATMKTFCGTPEYLAPEVLEDNDYGRAVDWWGLGVVMYEMMCGRLPFYNQDHEKLFELILMEEIRFPRTLGPEAKSLLSGLLKKDPKQRLGGGSEDAKEIMQHRFFAGIVWQHVYEKKLSPPFKPQVTSETDTRYFDEEFTAQMITITPPDQDDSMECVDSERRPHFPQFSYSASGTA
partner: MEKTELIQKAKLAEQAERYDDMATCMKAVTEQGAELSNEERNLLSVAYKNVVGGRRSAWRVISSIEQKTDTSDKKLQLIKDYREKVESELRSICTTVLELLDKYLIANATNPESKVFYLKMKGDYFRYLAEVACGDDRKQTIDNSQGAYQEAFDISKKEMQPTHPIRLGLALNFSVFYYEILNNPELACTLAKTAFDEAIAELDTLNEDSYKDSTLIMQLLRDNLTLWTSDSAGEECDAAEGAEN
B2: RAC-alpha serine/threonine-protein kinase (Homo sapiens), P31749 (parent)
chain: B1 chain
partner: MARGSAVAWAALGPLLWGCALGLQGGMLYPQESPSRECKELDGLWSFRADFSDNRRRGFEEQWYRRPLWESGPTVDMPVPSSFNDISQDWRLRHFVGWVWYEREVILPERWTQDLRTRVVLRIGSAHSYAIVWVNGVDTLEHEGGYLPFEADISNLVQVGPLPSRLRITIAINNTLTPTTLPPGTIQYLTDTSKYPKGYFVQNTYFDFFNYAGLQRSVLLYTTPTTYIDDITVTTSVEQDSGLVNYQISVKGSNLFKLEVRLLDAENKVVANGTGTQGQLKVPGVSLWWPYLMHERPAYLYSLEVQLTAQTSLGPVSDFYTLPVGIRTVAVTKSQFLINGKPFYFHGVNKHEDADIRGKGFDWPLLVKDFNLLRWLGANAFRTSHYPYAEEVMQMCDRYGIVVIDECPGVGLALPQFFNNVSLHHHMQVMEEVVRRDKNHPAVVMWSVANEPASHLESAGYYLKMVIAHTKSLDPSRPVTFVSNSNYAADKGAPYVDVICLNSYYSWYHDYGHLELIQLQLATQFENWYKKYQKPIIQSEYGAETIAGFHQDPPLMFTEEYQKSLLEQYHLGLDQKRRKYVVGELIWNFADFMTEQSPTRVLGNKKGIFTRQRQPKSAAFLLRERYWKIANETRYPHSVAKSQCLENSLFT
B3: RAC-alpha serine/threonine-protein kinase (Homo sapiens), P31749 (parent)
chain: B1 chain
partner: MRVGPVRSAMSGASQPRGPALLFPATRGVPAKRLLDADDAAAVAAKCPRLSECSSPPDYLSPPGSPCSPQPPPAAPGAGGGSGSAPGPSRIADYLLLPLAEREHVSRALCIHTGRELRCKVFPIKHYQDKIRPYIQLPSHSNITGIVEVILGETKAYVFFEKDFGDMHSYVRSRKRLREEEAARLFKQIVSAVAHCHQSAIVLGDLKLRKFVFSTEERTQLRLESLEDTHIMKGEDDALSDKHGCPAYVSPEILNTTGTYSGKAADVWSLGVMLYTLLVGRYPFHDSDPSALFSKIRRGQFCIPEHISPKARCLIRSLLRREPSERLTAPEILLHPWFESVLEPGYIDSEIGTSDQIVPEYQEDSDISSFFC
B4: RAC-alpha serine/threonine-protein kinase (Homo sapiens), P31749 (parent)
chain: B1 chain
partner: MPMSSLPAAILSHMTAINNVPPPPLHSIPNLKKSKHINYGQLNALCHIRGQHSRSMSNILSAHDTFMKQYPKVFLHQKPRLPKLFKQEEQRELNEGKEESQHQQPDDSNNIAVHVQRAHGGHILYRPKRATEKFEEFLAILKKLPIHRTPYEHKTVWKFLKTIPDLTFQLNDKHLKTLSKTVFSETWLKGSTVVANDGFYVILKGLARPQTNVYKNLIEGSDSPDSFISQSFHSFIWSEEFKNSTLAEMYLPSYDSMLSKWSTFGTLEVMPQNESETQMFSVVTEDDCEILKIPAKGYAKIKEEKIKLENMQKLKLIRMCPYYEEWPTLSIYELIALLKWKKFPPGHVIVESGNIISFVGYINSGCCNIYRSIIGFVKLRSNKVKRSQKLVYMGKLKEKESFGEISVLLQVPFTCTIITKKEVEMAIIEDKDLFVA
B5: RAC-alpha serine/threonine-protein kinase (Homo sapiens), P31749 (parent)
chain: B1 chain
partner: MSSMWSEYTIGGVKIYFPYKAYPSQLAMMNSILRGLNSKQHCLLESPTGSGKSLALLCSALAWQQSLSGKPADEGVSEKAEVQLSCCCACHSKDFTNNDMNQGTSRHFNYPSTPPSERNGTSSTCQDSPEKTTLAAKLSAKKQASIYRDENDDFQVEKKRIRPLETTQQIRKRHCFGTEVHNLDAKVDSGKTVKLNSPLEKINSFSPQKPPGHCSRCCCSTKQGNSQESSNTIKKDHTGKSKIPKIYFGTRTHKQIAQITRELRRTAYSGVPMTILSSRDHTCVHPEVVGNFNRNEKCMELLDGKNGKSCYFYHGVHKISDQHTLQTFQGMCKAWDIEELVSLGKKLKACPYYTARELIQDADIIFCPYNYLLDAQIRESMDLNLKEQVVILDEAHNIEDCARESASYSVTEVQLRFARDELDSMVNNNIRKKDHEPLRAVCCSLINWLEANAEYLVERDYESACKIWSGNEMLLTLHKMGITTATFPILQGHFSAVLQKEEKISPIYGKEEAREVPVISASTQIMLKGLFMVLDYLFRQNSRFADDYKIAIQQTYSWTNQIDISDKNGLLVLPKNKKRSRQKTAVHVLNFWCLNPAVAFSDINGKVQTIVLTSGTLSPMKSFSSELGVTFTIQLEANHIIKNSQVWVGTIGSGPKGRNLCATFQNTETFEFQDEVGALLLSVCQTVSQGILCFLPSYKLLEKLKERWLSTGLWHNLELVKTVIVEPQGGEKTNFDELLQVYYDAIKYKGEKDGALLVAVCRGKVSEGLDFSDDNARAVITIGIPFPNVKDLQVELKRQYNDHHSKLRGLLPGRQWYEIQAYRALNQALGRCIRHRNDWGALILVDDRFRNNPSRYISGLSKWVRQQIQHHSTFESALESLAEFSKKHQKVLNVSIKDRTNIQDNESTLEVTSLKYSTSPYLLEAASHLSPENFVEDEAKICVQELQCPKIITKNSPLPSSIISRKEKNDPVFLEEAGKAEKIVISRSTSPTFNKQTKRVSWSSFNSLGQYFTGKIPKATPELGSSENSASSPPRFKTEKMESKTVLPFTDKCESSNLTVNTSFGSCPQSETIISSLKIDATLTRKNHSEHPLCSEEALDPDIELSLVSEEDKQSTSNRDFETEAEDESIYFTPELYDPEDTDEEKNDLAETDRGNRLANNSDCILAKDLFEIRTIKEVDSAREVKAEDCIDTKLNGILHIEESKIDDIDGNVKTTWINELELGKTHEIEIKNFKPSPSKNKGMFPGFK
B6: RAC-alpha serine/threonine-protein kinase (Homo sapiens), P31749 (parent)
chain: B1 chain
partner: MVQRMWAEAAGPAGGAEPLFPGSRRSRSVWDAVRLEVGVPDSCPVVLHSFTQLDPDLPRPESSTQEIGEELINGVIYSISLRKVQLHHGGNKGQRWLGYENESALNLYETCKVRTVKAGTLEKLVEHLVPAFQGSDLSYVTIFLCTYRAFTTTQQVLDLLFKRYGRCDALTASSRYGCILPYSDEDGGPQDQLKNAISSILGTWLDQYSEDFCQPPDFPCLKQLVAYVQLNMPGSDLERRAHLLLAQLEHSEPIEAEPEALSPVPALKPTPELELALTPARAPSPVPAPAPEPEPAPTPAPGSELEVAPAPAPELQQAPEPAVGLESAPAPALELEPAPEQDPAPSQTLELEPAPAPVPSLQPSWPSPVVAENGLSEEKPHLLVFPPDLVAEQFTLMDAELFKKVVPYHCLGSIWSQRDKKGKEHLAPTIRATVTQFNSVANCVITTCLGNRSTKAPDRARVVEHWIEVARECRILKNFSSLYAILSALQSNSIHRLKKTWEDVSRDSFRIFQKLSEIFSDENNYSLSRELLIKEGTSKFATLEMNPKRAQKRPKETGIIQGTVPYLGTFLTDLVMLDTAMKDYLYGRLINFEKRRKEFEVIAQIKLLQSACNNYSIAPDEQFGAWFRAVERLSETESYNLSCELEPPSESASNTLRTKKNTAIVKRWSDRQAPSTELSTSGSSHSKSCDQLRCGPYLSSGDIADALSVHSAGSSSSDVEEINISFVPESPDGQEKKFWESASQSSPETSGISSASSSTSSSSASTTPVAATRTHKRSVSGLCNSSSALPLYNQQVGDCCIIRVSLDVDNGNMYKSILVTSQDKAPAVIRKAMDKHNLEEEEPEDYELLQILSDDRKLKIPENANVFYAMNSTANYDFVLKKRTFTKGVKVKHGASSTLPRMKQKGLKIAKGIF
B7: RAC-alpha serine/threonine-protein kinase (Homo sapiens), P31749 (parent)
chain: B1 chain
partner: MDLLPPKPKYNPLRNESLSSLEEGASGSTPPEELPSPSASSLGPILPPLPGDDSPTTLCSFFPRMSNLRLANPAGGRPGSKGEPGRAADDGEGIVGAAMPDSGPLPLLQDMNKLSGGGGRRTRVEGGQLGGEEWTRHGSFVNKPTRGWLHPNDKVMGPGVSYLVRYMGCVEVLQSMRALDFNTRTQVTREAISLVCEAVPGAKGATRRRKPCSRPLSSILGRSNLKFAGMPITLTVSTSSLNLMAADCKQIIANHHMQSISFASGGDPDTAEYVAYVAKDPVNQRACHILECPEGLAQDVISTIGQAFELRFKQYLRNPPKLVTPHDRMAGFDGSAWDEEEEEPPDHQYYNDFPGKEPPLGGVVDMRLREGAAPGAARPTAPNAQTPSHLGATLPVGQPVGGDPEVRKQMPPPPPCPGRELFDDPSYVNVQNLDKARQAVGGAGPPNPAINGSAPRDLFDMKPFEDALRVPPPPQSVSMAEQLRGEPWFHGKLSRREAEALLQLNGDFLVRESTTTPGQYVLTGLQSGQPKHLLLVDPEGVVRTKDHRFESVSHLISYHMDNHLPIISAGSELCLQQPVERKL
B8: RAC-alpha serine/threonine-protein kinase (Homo sapiens), P31749 (parent)
chain: B1 chain
partner: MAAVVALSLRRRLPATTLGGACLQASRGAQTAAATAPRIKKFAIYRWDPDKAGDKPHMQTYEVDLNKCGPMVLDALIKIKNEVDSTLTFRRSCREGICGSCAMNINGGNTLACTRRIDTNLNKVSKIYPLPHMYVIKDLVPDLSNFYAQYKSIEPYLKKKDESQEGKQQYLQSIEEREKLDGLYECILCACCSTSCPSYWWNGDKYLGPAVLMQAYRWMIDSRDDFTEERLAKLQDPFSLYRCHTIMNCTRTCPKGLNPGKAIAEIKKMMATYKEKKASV
B9: RAC-alpha serine/threonine-protein kinase (Homo sapiens), P31749 (parent)
chain: B1 chain
partner: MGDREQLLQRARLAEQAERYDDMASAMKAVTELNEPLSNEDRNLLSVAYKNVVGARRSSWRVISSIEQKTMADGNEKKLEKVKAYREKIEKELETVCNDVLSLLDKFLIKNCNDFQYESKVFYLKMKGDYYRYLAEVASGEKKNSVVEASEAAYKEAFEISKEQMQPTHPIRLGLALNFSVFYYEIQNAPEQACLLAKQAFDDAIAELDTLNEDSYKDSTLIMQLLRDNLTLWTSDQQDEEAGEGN
B10: RAC-alpha serine/threonine-protein kinase (Homo sapiens), P31749 (parent)
chain: B1 chain
partner: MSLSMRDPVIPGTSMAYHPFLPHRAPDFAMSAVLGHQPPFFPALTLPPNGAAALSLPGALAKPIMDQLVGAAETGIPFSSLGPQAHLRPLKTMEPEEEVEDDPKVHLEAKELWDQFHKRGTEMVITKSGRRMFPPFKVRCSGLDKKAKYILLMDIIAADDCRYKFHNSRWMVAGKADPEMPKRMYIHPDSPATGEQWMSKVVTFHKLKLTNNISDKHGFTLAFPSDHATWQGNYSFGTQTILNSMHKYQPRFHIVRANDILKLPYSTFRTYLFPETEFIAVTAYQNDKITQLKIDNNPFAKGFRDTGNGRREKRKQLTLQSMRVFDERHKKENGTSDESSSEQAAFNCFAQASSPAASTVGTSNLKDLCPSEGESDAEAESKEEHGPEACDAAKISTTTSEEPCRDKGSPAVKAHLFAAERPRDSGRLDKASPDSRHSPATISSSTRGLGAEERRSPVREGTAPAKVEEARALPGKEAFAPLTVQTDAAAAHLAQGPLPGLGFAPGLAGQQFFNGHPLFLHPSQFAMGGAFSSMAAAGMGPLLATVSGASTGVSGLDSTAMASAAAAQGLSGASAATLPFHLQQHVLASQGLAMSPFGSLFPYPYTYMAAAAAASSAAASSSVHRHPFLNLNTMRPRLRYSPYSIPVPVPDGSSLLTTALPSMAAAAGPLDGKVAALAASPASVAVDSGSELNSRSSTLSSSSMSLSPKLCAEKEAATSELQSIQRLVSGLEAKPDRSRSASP

Variants of: B1
Conditions: with 1433t_human YWHAQ

Row | Variant | effect of a mutation on the interaction
1 | E17K | with no effect

Variants of: B2
Conditions: with bglr_human GUSB

Row | Variant | effect of a mutation on the interaction
2 | E17K | with no effect

Variants of: B3
Conditions: with trib1_human TRIB1, Q96RU8

Row | Variant | effect of a mutation on the interaction
3 | E17K | with no effect

Variants of: B4
Conditions: with cnbd1_human CNBD1, Q8NA66

Row | Variant | effect of a mutation on the interaction
4 | E17K | causing an interaction

Variants of: B5
Conditions: with fancj_human BRIP1, Q9BX63

Row | Variant | effect of a mutation on the interaction
5 | E17K | causing an interaction

Variants of: B6
Conditions: with gnds_human RALGDS

Row | Variant | effect of a mutation on the interaction
6 | E17K | causing an interaction

Variants of: B7
Conditions: with shc1_human SHC1, P29353

Row | Variant | effect of a mutation on the interaction
7 | E17K | with no effect

Variants of: B8
Conditions: with sdhb_human SDHB

Row | Variant | effect of a mutation on the interaction
8 | E17K | causing an interaction

Variants of: B9
Conditions: with 1433f_human YWHAH

Row | Variant | effect of a mutation on the interaction
9 | E17K | with no effect

Variants of: B10
Conditions: with tbx3_human TBX3, O15119

Row | Variant | effect of a mutation on the interaction
10 | E17K | with no effect
